Laboratory results as given in article PMC2805098.

Substrate: Nc1nc2c(c(=O)[nH]1)N1CN(c3ccc(C(=O)N[C@@H](CCC(=O)O)C(=O)O)cc3)C[C@H]1CN2
Test: NADH-CH2-H4folate oxidoreductase assay, steady-state
Format: biochemical, Escherichia coli
Settings: other: 1000 μM NADH, fit to eq 6, anaerobic, 25 °C, pH 7.2

B1: Phe223Leu MTHFR (Escherichia coli K-12; F223L) (protein)
chain: MSFFHASQRDALNQSLAEVQGQINVSFEFFPPRTSEMEQTLWNSIDRLSSLKPKFVSVTYGANSGERDRTHSIIKGIKDRTGLEAAPHLTCIDATPDELRTIARDYWNNGIRHIVALRGDLPPGSGKPEMYASDLVTLLKEVADFDISVAAYPEVHPEAKSAQADLLNLKRKVDAGANRAITQFFFDVESYLRFRDRCVSAGIDVEIIPGILPVSNFKQAKKLADMTNVRIPAWMAQMFDGLDDDAETRKLVGANIAMDMVKILSREGVKDFHFYTLNRAEMSYAICHTLGVRPGL
kcat: 14 ± 2 s⁻¹
